In patent publication US5604198A, “Method to enhance permeability of the blood/brain blood/nerve barriers to therapeutic agents” (priority 1994, dated 1997):

Settings: rat

With albumin [reference compound] the “Residual endoneurial plasma volume (Vp) of the blood nerve barrier” value (in vivo) was 1.949 ± 0.589 µL/g and the “Permeability coefficient-surface area product (PS) of the blood nerve barrier” value (not told, iv) was 0.101 ± 0.088 ml/g/sec × 10^6.
